Earlier results on 1 substance are cited in publication PMC5437307 (2017).

Chains of the proteins cited; added tags and fusions are not shown. Residues count along the entry.
UniProt P01589, 22-240, chain 1 of 3: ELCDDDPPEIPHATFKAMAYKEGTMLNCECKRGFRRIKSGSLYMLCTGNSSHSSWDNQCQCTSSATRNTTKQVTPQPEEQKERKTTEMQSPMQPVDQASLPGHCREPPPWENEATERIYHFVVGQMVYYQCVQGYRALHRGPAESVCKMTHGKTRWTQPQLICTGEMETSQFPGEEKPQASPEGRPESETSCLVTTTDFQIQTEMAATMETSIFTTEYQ
UniProt P60568, 21-153: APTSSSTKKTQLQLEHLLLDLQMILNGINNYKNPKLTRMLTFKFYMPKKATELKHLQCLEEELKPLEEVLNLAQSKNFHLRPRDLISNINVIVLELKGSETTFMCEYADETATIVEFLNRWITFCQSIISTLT

For the data set, the target named is IL-2Rαβγc (Homo sapiens) (UniProt P01589). The conditions noted are these: cited from earlier work.

Consider IL-2 (from UniProt P60568), for which the dissociation constant Kd is 10 pM.

The Kd is a measure of binding affinity in units of concentration.
